US7659240B2, “Mucin immobilized chromatography” (Vertex Pharmaceuticals Incorporated, priority 2002, dated 2010)
Where a name gives a salt, the structure may show the parent alone.

System: mucin immobilized to PC IAM particles
Test: pH and mucin layer thickness dependence of partition ratio on MIC columns (1:2 and 2:1)
Conditions: for (1:2) k′ (pH 3) / (1:2) k′ (pH 5) / (1:2) k′ (pH 7): column 1:2 mucin to PC IAM, 0.32 μm mucin layer; for (1:2) k′ (pH 3) / (2:1) k′ (pH 3): mobile phase pH 3; for (1:2) k′ (pH 5) / (2:1) k′ (pH 5): mobile phase pH 5; for (1:2) k′ (pH 7) / (2:1) k′ (pH 7): mobile phase pH 7; for (2:1) k′ (pH 3) / (2:1) k′ (pH 5) / (2:1) k′ (pH 7): column 2:1 mucin to PC IAM, 0.36 μm mucin layer

(1:2) k′ (pH 3)	(1:2) k′ (pH 5)	(1:2) k′ (pH 7)	(2:1) k′ (pH 3)	(2:1) k′ (pH 5)	(2:1) k′ (pH 7)	SMILES
35.67	35.67	32.33	27.57	27.57	37.33	CNC(=C[N+](=O)[O-])NCCSCc1ccc(CN(C)C)o1.Cl [ranitidine•HCl]
70.67	70.67	67.33	14.71	13.29	55.67	NS(=O)(=O)c1cc2c(cc1Cl)NCNS2(=O)=O [hydrochlorothiazide]
44.00	30.67	32.33	33.29	27.57	35.67	CC(C)(C)NC[C@H](O)COc1nsnc1N1CCOCC1 [Timolol]

SMILES	(1:2) k′ (pH 3)	(1:2) k′ (pH 5)	(1:2) k′ (pH 7)	(2:1) k′ (pH 3)	(2:1) k′ (pH 5)	(2:1) k′ (pH 7)
C=C[C@H]1C[N@@]2CC[C@H]1C[C@@H]2[C@@H](O)c1ccnc2ccc(OC)cc12 [quinidine, HCl]	49.00	87.33	99.00	37.57	63.29	132.33
